Results from patent US20230203052A1, “ACYCLIC CUCURBITURILS, METHODS OF MAKING SAME, AND USES THEREOF” (University of Maryland, College Park, priority 2020, published 2023).

What was measured:
[1] = ITC binding of guests to host 1 (direct or competitive titration); details: for Ka of host·guest complex of 1: pH 7.4
[2] = test system: male Swiss Webster (CFW) mice; details: mouse, in vivo

**Q.** For CN(C)CCCCCCN(C)C [guest 6c], which “Ka of host·guest complex of 1” value [1] is on record?
**A.** Its value is 5.74×10^8 M^−1 and 5.74 × 10^8; −10.5 ± 0.028^c) M^−1.

**Q.** With c1ccc(C2(N3CCCCC3)CCCCC2)cc1 [guest 16, PCP] as the molecule, how does the “Binding of host 1 compared with M1 (in words)” value [1] read?
**A.** Its value is “somewhat tighter”.

**Q.** What about the “Ka of host·guest complex of 1” value [1] of the same molecule?
**A.** The value was 1.89×10^5 M^−1 and 1.89 × 10^5; −6.18 ± 0.069^a) M^−1.

**Q.** Which “Ka of host·guest complex of 1” value [1] does the source give for CNC(C)Cc1ccc2c(c1)OCO2 (stereo not drawn) [MDMA] here?
**A.** The value was 2.54 × 10^6; −17.8 M^−1.

**Q.** Which “Ka of host·guest complex of 1” value [1] does the source give for NCCCCCCN [guest 6a] here?
**A.** The value was 3.70×10^8 M^−1 and 3.70 × 10^8; −8.60 ± 0.021^b) M^−1.

**Q.** With Cl.NC12CC3CC(CC(C3)C1)C2 [guest 12a] as the molecule, how does the “Ka of host·guest complex of 1” value [1] read?
**A.** Its value is 9.90×10^5 M^−1 and 9.90 × 10^5; −4.45 ± 0.021^a) M^−1.

**Q.** With C[N+](C)(C)CCCCCCCCCC[N+](C)(C)C [guest 10d] as the molecule, how does the “Ka of host·guest complex of 1” value [1] read?
**A.** The value was 5.43×10^8 M^−1 and 5.43 × 10^8; −10.3 ± 0.088^c) M^−1.

**Q.** Which “Ka of host·guest complex of 1” value [1] does the source give for Cl.Cl.NCc1ccc(CN)cc1 [guest 11a] here?
**A.** Its value is 9.71×10^8 M^−1 and 9.71 × 10^8; −9.69 ± 0.014^b) M^−1.

**Q.** For C[C@]12N3Cc4c(OS(=O)(=O)[O-])ccc(OS(=O)(=O)[O-])c4CN1C(=O)N1CN4C(=O)N5CN6C(=O)N7CN8C(=O)N9Cc%10c(OS(=O)(=O)[O-])ccc(OS(=O)(=O)[O-])c%10CN%10C(=O)N(CN%11C(=O)N(CN%12C(=O)N(CN(C3=O)[C@]12C)[C@@H]4[C@H]%125)[C@@H]6[C@H]%117)[C@]8(C)[C@@]9%10C.[Na+].[Na+].[Na+].[Na+] [host 1], which “Locomotion counts, 5-minute reversal (methamphetamine then Motor0 5 minutes later)” value [2] is on record?
**A.** Its value is “significant decrease in locomotion”.

**Q.** What about the “Locomotion counts, 30s Blocking (Motor0 then methamphetamine 30 s later)” value [2] of the same molecule?
**A.** Its value is “effectively reduce the locomotion levels to that observed for D5W alone”.

**Q.** And the “Locomotion counts, 30 s Reversal (methamphetamine then Motor0 30 s later)” value [2]?
**A.** The value was “significantly lower than Meth alone”.

**Q.** What about the “Locomotion counts, Motor0 only” value [2] of the same molecule?
**A.** Its value is “does not significantly change the locomotion levels”.

**Q.** What about the “Locomotion counts, Premix of Motor0 and methamphetamine” value [2] of the same molecule?
**A.** Its value is “effectively reduce the locomotion levels to that observed for D5W alone”.

**Q.** With COc1ccc2c3c1O[C@H]1C(=O)CC[C@@]4(O)[C@@H](C2)N(C)CC[C@]314 [Oxycodone] as the molecule, how does the “Ka of host·guest complex of 1” value [1] read?
**A.** Its value is 3.24 × 10^6; −19.4 M^−1.

**Q.** Which “Ka of host·guest complex of 1” value [1] does the source give for COc1ccc2c3c1O[C@H]1C(=O)CC[C@H]4[C@@H](C2)N(C)CC[C@]314 [Hydrocodone] here?
**A.** Its value is 2.88 × 10^6; −18.5 M^−1.

**Q.** Which “Ka of host·guest complex of 1” value [1] does the source give for C[N+](C)(C)Cc1ccc(C[N+](C)(C)C)cc1.[Cl-].[Cl-] [guest 11d] here?
**A.** Its value is 1.05×10^9 M^−1 and 1.05 × 10^9; −12.0 ± 0.030^b) M^−1.

**Q.** With CNC(C)C(=O)c1ccc(C)cc1 (stereo not drawn) [Mephedrone] as the molecule, how does the “Ka of host·guest complex of 1” value [1] read?
**A.** Its value is 1.24 × 10^6; −16.4 M^−1.

**Q.** Which “Ka of host·guest complex of 1” value [1] does the source give for NCCCCN [guest 5] here?
**A.** Its value is 1.68×10^6 M^−1 and 1.68 × 10^6; −6.76 ± 0.020^a) M^−1.

**Q.** Which results are given for C=CC[N+]1([C@H]2C[C@H]3[C@@H]4CC[C@H]5C[C@H](O)[C@@H](N6CCOCC6)C[C@]5(C)[C@H]4CC[C@]3(C)[C@H]2OC(C)=O)CCCC1 [guest 19, rocuronium]?
**A.** Binding of 1 to guest stronger than M1 [1]: 75 fold; Ka of host·guest complex of 1 [1]: 6.29×10^8 M^−1 and 6.29 × 10^8; −12.9 ± 0.056^b) M^−1

**Q.** For CC(=O)O[C@H]1C[C@@H]2CC[C@@H]3[C@H](CC[C@@]4(C)[C@H]3C[C@H]([N+]3(C)CCCCC3)[C@@H]4OC(C)=O)[C@@]2(C)C[C@@H]1N1CCCCC1 [guest 20, vecuronium], which “Binding of 1 to guest stronger than M1” value [1] is on record?
**A.** Its value is 172 fold.

**Q.** And the “Ka of host·guest complex of 1” value [1]?
**A.** The value was 1.00×10^9 M^−1 and 1.00 × 10^9; −9.62 ± 0.036^c) M^−1.

**Q.** With Cl.Cl.NC1CCC(N)CC1 (stereo not drawn) [guest 13a] as the molecule, how does the “Ka of host·guest complex of 1” value [1] read?
**A.** Its value is 3.41×10^6 M^−1 and 3.41 × 10^6; −2.92 ± 0.019^a) M^−1.

**Q.** Which “Ka of host·guest complex of 1” value [1] does the source give for CNCCCCCCNC [guest 6b] here?
**A.** The value was 5.26×10^8 M^−1 and 5.26 × 10^8; −9.82 ± 0.038^c) M^−1.

**Q.** With C[N+](C)(C)CCCCCC[N+](C)(C)C.[Cl-].[Cl-] [guest 6d] as the molecule, how does the “Binding of 1 to guest stronger than M1” value [1] read?
**A.** Its value is 75 fold.

**Q.** And the “Host 1 preference for guest over primary-tertiary ammonium ions 6a-6c” value [1]?
**A.** The value was “≈ 10 fold”.

**Q.** And the “Ka of host·guest complex of 1” value [1]?
**A.** Its value is 6.79×10^9 M^−1 and 6.71×10^9 M^−1 and 6.71 × 10^9; −12.1 ± 0.042^c) M^−1.

**Q.** For C=CCN1CC[C@]23c4c5ccc(O)c4O[C@H]2C(=O)CC[C@@]3(O)[C@H]1C5 [guest 18], which “Ka of host·guest complex of 1” value [1] is on record?
**A.** The value was 4.85×10^6 M^−1 and 4.85 × 10^6; −5.90 ± 0.205^a) M^−1.

**Q.** With CN1CC[C@]23c4c5ccc(O)c4O[C@H]2[C@@H](O)C=C[C@H]3[C@H]1C5 [guest 17, morphine] as the molecule, how does the “Binding of host 1 compared with M1 (in words)” value [1] read?
**A.** Its value is “somewhat tighter”.

**Q.** What about the “Ka of host·guest complex of 1” value [1] of the same molecule?
**A.** Its value is 7.69×10^5 M^−1 and 7.69 × 10^5; −8.03 ± 0.07^a) M^−1.

**Q.** Which “Ka of host·guest complex of 1” value [1] does the source give for CCOC(=O)C1(c2ccccc2)CCN(C)CC1 [Meperidine] here?
**A.** Its value is 9.09 × 10^3; −9.08 M^−1.

**Q.** For CNC1(c2ccccc2Cl)CCCCC1=O (stereo not drawn) [Ketamine], which “Ka of host·guest complex of 1” value [1] is on record?
**A.** The value was 8.13 × 10^3; −12.1 M^−1.

**Q.** Which “Host 1 binds guest weaker than quaternary diammonium 6d” value [1] does the source give for CCCCCC[N+](C)(C)C [guest 6Q] here?
**A.** Its value is 890 fold.

**Q.** What about the “Ka of host·guest complex of 1” value [1] of the same molecule?
**A.** Its value is 7.57×10^6 M^−1 and 7.57 × 10^6; −9.68 ± 0.063^a) M^−1.

**Q.** For C[N+](C)(C)C12CC3CC(CC(C3)C1)C2.[I-] [guest 12d], which “Ka of host·guest complex of 1” value [1] is on record?
**A.** The value was 6.66×10^6 M^−1 and 6.66 × 10^6; −7.36 ± 0.030^d) M^−1.

**Q.** For CC(=O)Oc1ccc2c3c1O[C@H]1[C@@H](OC(C)=O)C=C[C@H]4[C@@H](C2)N(C)CC[C@@]341 [Heroin], which “Ka of host·guest complex of 1” value [1] is on record?
**A.** The value was 8.20 × 10^5; −14.5 M^−1.

Several values for one entry are separate records, joined by “and”; a condition that tells them apart may be missing. Equal entries are not always repeated.
